{"sequences": {"note": "Protein sequences, listed by entry. Tags and fused reporters are not part of them.", "UniProt P43116, whole entry": "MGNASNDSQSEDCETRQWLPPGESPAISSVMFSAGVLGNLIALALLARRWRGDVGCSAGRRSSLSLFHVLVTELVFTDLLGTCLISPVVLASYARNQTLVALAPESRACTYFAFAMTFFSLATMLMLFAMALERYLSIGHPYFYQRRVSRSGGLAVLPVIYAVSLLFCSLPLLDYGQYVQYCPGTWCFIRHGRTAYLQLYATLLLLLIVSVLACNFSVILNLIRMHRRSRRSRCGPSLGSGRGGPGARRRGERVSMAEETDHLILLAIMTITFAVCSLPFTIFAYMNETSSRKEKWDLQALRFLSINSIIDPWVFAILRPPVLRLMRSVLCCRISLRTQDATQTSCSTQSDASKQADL"}, "source": "patent US7622475B2", "about": "“EP2 agonists” (Pfizer Inc, priority 2006, dated 2009)", "key": {"EP2": {"molecular_target": "EP2 (Homo sapiens, UniProt P43116)", "experiment": "EP2 cAMP EC50 (Table 1)", "assay_type": "cell-based", "settings": "read-out: EP2 cAMP EC50"}, "[1]": {"molecular_target": "prostaglandin E2 type 2 (EP2) receptors (Homo sapiens, UniProt P43116)", "experiment": "Assay for binding to prostaglandin E2 receptors (3H-prostaglandin E2 displacement, membranes of transfected cells)", "settings": "read-out: EP2 IC50; displacement of 3H-prostaglandin E2", "method": "Assay for Binding to Prostaglandin E2 Receptors\nAll operations are performed at 4° C. Transfected cells expressing prostaglandin E2 type 1 receptors (EP1), type 2 (EP2), type 3 (EP3) or type 4 (EP4) receptors are harvested and suspended to 2 million cells per ml in Buffer A [50 mM Tris-HCl (pH 7.4), 10 mM MgCl2, 1 mM EDTA, 1 mM Pefabloc peptide, (Sigma, St. Louis, Mo.), 10 uM Phosporamidon peptide, (Sigma, St. Louis, Mo.), 1 uM Pepstatin A peptide, (Sigma, St. Louis, Mo.), 10 uM Elastatinal peptide, (Sigma, St. Louis, Mo.), 100 uM Antipain peptide, (Sigma, St. Louis, Mo.)]. […] Pelleted membranes are resuspended to 3-10 mg protein per ml, protein concentration being determined according to the method of Bradford [Bradford, M., Anal. Biochem., 72, 248 (1976)]. […]\nFrozen membranes as prepared are thawed and diluted to 1 mg protein per ml in Buffer A. One volume of membrane preparation is combined with 0.05 volume test compound or buffer and one volume of 3 nM 3H-prostaglandin E2 (#TRK 431, Amersham, Arlington Heights, Ill.) in Buffer A. The mixture (205 μL total volume) is incubated for 1 hour at 25° C. […] To determine the amount of 3H-prostaglandin bound to the membranes, the dried filters are placed into plastic bags with scintillation fluid and counted in a LKB 1205 Betaplate reader (Wallac, Gaithersburg, Md.). […]"}}}
{"smiles": "CC(C)(C)OC(=O)c1csc(CCCN(CCOc2cc(Cl)cc(Cl)c2)S(C)(=O)=O)n1", "values": [{"measurement": "EC50", "setting": "EP2", "result": 18, "unit": "nM"}, {"measurement": "IC50", "setting": "[1]", "result": 5.3, "unit": "nM"}]}
